Earlier results as cited in patent publication US20220090096A1 (priority 2019, published 2022).

System: aptamer of the theophylline-responsive riboswitch
Settings: cited from earlier work

Cn1c(=O)c2[nH]cnc2n(C)c1=O [theophylline]
binding affinity for theophylline greater than that of caffeine: 10,000 fold
